## scFv variants of Ab-14 (heavy chain) against a SARS-CoV-2 spike peptide

Target: peptide PDVDLGDISGINAS, taken from heptad repeat 2 (HR2) of SARS-CoV-2 spike.

Ab-14 is the parent antibody, in scFv form: VH, then the linker GGGGSGGGGSGGGGS, then VL. The light chain is unchanged in all variants.
VH: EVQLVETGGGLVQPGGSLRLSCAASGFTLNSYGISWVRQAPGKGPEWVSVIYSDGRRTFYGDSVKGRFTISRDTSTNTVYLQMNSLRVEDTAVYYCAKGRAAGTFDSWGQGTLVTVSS
VL: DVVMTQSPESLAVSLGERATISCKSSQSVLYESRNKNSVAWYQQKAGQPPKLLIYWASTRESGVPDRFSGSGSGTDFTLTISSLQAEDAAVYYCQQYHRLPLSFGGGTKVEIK

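The starting antibody came from a phage panning campaign against this peptide. The variants were designed computationally from a first round of random CDR variants and then made and measured. Group labels follow the data file (Ctrl: baseline library sampled from a position-specific scoring matrix, with some repeated check sequences; Rand: our label for a block that the file lists under HC and that is probably the random mutants of the ten best first-round binders; GP: Gaussian process model; GPLM: also part of the Gaussian process libraries; HC: hill climbing; Gen: genetic algorithm; Gibbs: Gibbs sampling; a sequence that several methods proposed may carry one label only). The scFvs were displayed on barcoded MATa yeast, the peptide on MATalpha yeast. The frequency of each diploid, read from paired DNA barcodes, reflects how well the two displayed proteins bind. Read counts were normalised to the haploid input and turned into Kd by a linear fit to BCL2-family pairs of known affinity, for each replicate. The assay was run in six technical replicates.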

Variants are written as CDR1, CDR2 and CDR3 of the heavy chain (limits as in the source). Parent: GFTLNSYGIS, VIYSDGRRTFYGDSVK, GRAAGTFDS. This list holds designs with at most six substitutions. Each Kd is an estimate from the mating assay, the geometric mean of the replicates in which the pair was seen; lower is stronger. An entry "no signal" has no value in the source: the pair was not observed among the diploids in any replicate. This suggests poor binding but is not conclusive. The range of this assay differs from that of the first round, and the authors advise against merging the two. Nonspecific signal, from three strains lacking the peptide, appeared in 1% of pairings of all heavy chain designs, centred on 120 nM (5% of these signals below 7.0 nM); values are not corrected for it. In the paper, a design with two or fewer of six values counts as a poor binder.

For GFTVNEYGIS / VIYSDGRRTFYGDSVK / GRAAGTFDS [Ctrl], the assay gave 15 nM (6 of 6 replicates). For GFTLQSYGIS / VIYSDGRRTFYGDSVK / GRAAGVFDS [Ctrl], the assay gave no signal (0 of 6 replicates). Variant GFTLNSYGIS / VIYSDGRRTFYGDDVK / GRASGTFDS [Ctrl] showed 29 nM (3 of 6 replicates). Variant GFDLNEYGIS / VIYSDGRRTFYGDQVK / GRTAGTFDK [GP_Gibbs] gave 370 pM (6 of 6 replicates). For GFSLNSYGIS / VIYSDGRRTFYVDSVK / GRLAGTFDS [GPLM_Gen], the assay gave 5.3 nM (3 of 6 replicates).

Variant SFTLNEYGIS / VIYSDGRRTFYGDSVK / GSAAATFDS [Ctrl] gave no signal (0 of 6 replicates). With GFELNSYGIS / VIYSDGRRTFYADSVK / GHAAGTFDL [GP_Gibbs] the result was 1.7 nM (6 of 6 replicates). Variant GFTLNSYGIS / VIYFDGRRTFYGDSVK / GREAGTFDL [Ctrl] showed 7.7 nM (1 of 6 replicates). For GFTLESYGIS / VIYSDGRRTFYGDPVK / GRTAGTFDS [GPLM_Gibbs], the assay gave no signal (0 of 6 replicates). For GFDLNSYGIS / VIYSDGRRTFYGDSVK / GKMAGTFDS [GPLM_Gen], the assay gave 3.7 nM (6 of 6 replicates).

Variant GFTLNSYGIS / VIYSDGYRTFYGDSVK / GDEAGTGDS [Ctrl] showed no signal (0 of 6 replicates). Variant GFTLNSYGIS / VIYSDGKRTFYSDSVK / GQAAGTFDS [GPLM_Gen] gave 14 nM (6 of 6 replicates). Variant GFTLNDYGIS / VIYSDGRRTFYIDSVK / GRAAGTFIS [GPLM_HC] gave 24 nM (2 of 6 replicates). Variant GFTLNEYGIS / VIYSDGRRTFYGDSVK / GRAAVTFDT [GPLM_Gen] gave no signal (0 of 6 replicates). For GFTLNEYGIS / VIYSDGRRTFYGDSVK / GQAAGTFDM [GPLM_Gen], the assay gave 13 nM (5 of 6 replicates).

For GFWLNMYGIS / VIYSDGRRTFYGDSVK / GRQAGTFDS [GP_Gibbs], the assay gave 24 nM (1 of 6 replicates). For GFQLNSYGIS / VIYSDGRRTFYDDSVK / GRAAGTFDS [GP_HC], the assay gave 6.0 nM (3 of 6 replicates). Variant GFSLNQYGIS / VIYSDGKRTFYSDSVK / GRAAGTFDS [GPLM_HC] showed 820 pM (6 of 6 replicates). With GFTLNMYGIS / VIYSDGRRTFYGDSVK / TWAAGVGDS [Ctrl] the result was no signal (0 of 6 replicates). Variant GFSLNSYGIS / VIYSDGRRTFYVDDVK / GNAAGTFDS [GPLM_Gibbs] gave 500 pM (6 of 6 replicates).

Variant GFDLNSYGIS / VIYSDGRRTFYTDSVK / GRAAGTFDS [GPLM_Gen] gave 5.6 nM (6 of 6 replicates). Variant GFTLNQYGIS / VLYSDGRRTFYSDSLK / GRAAGFFDS [Rand] gave no signal (0 of 6 replicates). Variant GFTLESYGIS / VIYSDGRRTFYGDSVK / GEAAGIFDS [Ctrl] showed no signal (0 of 6 replicates). For GFTLKSYGIS / VIYSDGRRTFYSDSVK / GEAGGTFDS [GP_HC], the assay gave 70 nM (6 of 6 replicates). For PFSLNSYGIS / VIYSDGRRTFYKDSVK / GRTAGTFDS [GP_Gibbs], the assay gave 140 nM (2 of 6 replicates).

With GFALNSYGIS / VIYADGRRTFYGDSVK / GEAAGTFDS [GPLM_Gen] the result was 590 pM (6 of 6 replicates). For GFSLNSYGIS / VIYSDGRRTFYIDSVK / GRMAGTFDS [GP_Gen], the assay gave 40 nM (5 of 6 replicates). Variant GFWLNSYGIS / VIYSDGRRTFYGDSVK / GNAAGTFDS [Ctrl] showed 5.8 µM (1 of 6 replicates). For GFTLNSYGIS / VIYSDGRRTFYGDSFK / GREAGTFDS [Ctrl], the assay gave 6.6 nM (6 of 6 replicates). With SFSLNSYGIS / VIYSDGRRTFYGDSVK / GEAAGTFDS [GPLM_Gen] the result was 5.7 nM (1 of 6 replicates).

Variant GFTLNSYGKS / VIYSDGRRTFYSDSVK / GRAGGTFDS [Rand] showed no signal (0 of 6 replicates). Variant GFVLNSYGIS / VIYSDGRRTFYADQVK / GQTAGTFDS [GP_Gibbs] gave 54 nM (6 of 6 replicates).

Top 3 of the variants detected in all replicates, tightest first:

GFDLNEYGIS / VIYSDGRRTFYGDQVK / GRTAGTFDK [GP_Gibbs]: 370 pM (6 of 6 replicates).
GFSLNSYGIS / VIYSDGRRTFYVDDVK / GNAAGTFDS [GPLM_Gibbs]: 500 pM (6 of 6 replicates).
GFALNSYGIS / VIYADGRRTFYGDSVK / GEAAGTFDS [GPLM_Gen]: 590 pM (6 of 6 replicates).

Reference: Li et al. 2023, doi:10.1038/s41467-023-39022-2. File: FLAb, binding data.